Experimental findings from publication PMC6062600, “A Novel Iron Transporter SPD_1590 in Streptococcus pneumoniae Contributing to Bacterial Virulence Properties” (Frontiers in Microbiology, 2018) are described below.

Molecules are shown by their SMILES.

The target in the assay is SPD_1590 (Streptococcus pneumoniae, UniProt A0A0H2ZNN3). Put plainly: biochemical.

Take `C=CC1=C(C)C2=Cc3c(C=C)c(C)c4[n]3[Fe]([Cl])[n]3c(c(C)c(CCC(=O)O)c3=CC3=NC(=C4)C(C)=C3CCC(=O)O)=CC1=N2` [hemin]: the equilibrium dissociation constant (Kd) was 2.41 µM.
